Data reported in US20250314639A1.

Chains of the proteins cited; added tags and fusions are not shown.
UniProt P03372, whole entry: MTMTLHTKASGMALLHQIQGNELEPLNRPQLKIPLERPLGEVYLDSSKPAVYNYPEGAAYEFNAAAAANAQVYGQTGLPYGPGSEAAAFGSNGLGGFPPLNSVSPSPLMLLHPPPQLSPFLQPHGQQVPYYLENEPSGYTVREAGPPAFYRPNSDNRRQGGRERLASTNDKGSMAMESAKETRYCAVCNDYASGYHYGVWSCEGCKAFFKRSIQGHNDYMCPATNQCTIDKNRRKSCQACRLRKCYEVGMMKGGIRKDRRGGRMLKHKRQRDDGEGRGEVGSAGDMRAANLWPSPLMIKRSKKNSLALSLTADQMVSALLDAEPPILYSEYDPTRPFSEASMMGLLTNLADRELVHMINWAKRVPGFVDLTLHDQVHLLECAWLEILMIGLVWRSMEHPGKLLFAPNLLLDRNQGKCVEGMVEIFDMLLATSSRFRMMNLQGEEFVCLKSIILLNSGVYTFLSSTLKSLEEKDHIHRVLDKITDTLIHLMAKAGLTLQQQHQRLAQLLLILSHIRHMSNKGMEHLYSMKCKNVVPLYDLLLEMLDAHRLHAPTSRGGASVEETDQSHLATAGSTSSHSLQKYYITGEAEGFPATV

How the values were obtained:
[1] = biological target: T1, ER (Homo sapiens, UniProt P03372); assay: residence time imaging of ER-Halo cells (track length survival); type: cell-based; settings: track length distribution, versus DMSO or other ER modulators
T1 construct: expressed in transfected cells; host or cells: U2OS

[2] = biological target: T2, PR (Homo sapiens, UniProt P06401); assay: htSMT fbound of Halo-PR in U2OS cells; type: cell-based; settings: 1 μM antagonist, absence or presence of cognate agonist
T2 construct: expressed in transfected cells; host or cells: U2OS
T2 sequence (P06401 1-933): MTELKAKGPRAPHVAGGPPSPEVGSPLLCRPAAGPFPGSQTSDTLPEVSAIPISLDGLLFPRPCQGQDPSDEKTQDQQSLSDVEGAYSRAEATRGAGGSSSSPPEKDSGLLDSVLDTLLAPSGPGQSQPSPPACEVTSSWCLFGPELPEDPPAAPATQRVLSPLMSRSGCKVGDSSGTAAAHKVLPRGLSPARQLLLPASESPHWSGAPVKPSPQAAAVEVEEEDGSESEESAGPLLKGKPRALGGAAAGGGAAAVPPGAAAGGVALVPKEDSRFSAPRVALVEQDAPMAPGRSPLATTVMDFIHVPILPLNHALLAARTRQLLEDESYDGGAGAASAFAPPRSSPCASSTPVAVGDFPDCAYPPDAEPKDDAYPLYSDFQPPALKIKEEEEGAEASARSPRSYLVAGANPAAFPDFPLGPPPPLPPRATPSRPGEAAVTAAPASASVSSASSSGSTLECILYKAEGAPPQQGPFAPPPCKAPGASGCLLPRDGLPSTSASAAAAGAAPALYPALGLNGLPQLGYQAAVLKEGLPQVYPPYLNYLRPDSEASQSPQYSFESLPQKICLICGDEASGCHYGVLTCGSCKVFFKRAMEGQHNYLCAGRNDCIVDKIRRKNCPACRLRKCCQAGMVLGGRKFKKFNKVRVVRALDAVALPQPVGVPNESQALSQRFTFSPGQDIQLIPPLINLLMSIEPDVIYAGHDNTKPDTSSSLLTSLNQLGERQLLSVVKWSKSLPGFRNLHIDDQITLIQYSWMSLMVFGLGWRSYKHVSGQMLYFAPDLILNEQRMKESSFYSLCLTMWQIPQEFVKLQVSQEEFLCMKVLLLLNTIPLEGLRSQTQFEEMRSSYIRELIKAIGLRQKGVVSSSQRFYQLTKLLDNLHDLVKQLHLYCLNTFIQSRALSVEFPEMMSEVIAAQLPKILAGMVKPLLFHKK

Compound | ER binding times (relative residence times) [1] | change in chromatin binding (fbound) of PR [2]
C[C@]12CC[C@@H]3c4ccc(O)cc4C[C@@H](CCCCCCCCC[S+]([O-])CCCC(F)(F)C(F)(F)F)[C@H]3[C@@H]1CC[C@@H]2O (some centres unmarked) | longer binding times | 
CC#C[C@]1(O)CC[C@H]2[C@@H]3CCC4=CC(=O)CCC4=C3[C@@H](c3ccc(N(C)C)cc3)C[C@@]21C [mifepristone] |  | behaves similarly to ER antagonists
